These results are taken from patent US20250249020A1, “COLLOIDALLY STABLE HEME-ALBUMIN COMPLEXES AND METHODS OF MAKING AND USING THEREOF” (Ohio State Innovation Foundation, priority 2022, published 2025).

Values joined by “and” are separate entries in the source; they are usually repeats but may differ in a detail not shown here. Identical values can stand only once. “Also recorded” adds a separate entry of the source.

Assay type in all cases: physicochemical
Data set [1] in a line: Hydrodynamic diameter by dynamic light scattering (DLS). The settings on record: samples in deionized water. The protocol:
Hydrodynamic Diameter. The hydrodynamic diameter of protein samples was measured using a BI-200SM goniometer (Brookhaven Instruments Corp., Holtsville, NY) at an angle of 90° and wavelength of 637 nm. Protein samples were diluted to ˜0.5-1 mg/mL concentration in deionized water. The hydrodynamic diameter was obtained by using average values from the non-linear least squared (NNLS) algorithm in the instrument software.

A short description of data set [2]: Storage and freeze-thaw stability analysis by SEC-HPLC. The settings on record: for change in quaternary structure / SEC-HPLC elution profile: storage at 4° C. for 72 hours; for larger species (~8.4 mins): post one freeze-thaw cycle. (Size exclusion chromatography separates by hydrodynamic size, large species first.)
A short description of data set [3]: Secondary structure (α-helical content) by far UV circular dichroism. The settings on record: CD peak at 222 nm. The protocol: Secondary Structure. The far UV circular dichroism (CD) spectra of protein samples was measured using a JASCO J-815 CD (JASCO, Easton, MD) spectrometer. Samples were diluted to 10 μM (protein basis) in deionized water and the absorbance was measured from 200 to 260 nm. For each measurement, spectra were obtained by averaging 3 repeated scans. Baseline subtraction was performed, and the absorbance was normalized using the protein concentration. The molar ellipticity was reported in units of deg cm^2 dmol^−1. The α-helix peak at 222 nm was used to determine the change in α-helical content of samples.

Data set [4] can be described thus: Heme incorporation quantification (heme pellet centrifugation, UV-visible). The settings on record: for heme molecules bound to each HSA molecule: pH 7.4. The protocol:
Heme Incorporation Quantification. […] All final products were centrifuged at 20,000×g for 3 mins to precipitate unbound heme. The supernatant was removed, and the heme pellet was solubilized in 1 mL of 0.1 M NaOH. The concentration of unbound heme (i.e. from NaOH solubilized heme pellet) in each sample was determined using the absorbance at the 398 nm peak, and using an extinction coefficient of 12 x10^4 M^−1 cm^−1. The difference in the mass of free heme solubilized in NaOH before reaction (total heme), and after centrifugation to form the heme pellet (unbound heme) was used to determine the amount of bound heme in the heme-HSA sample.

The mark [5] stands for this setting: post a single freeze-thaw cycle (−80° C.), directly and after 72 hours of storage at 4° C.

In data set [1], “HSA: 25 wt % human serum albumin solution manufactured by Octapharma” yielded a hydrodynamic diameter of 3.8±0.4 nm. Besides, the “change in quaternary structure” value is listed as “No change in the quaternary structure” in data set [2] (pH shift from 7.4 to 8.6 and rebalancing to 7.4); “HSA dimer formation” in data set [2] (setting [5]). The “change in quaternary structure / SEC-HPLC elution profile” value in data set [2] was “did not exhibit any changes in quaternary structure; also recorded: stable”. Also, the “reduction in α-helical content” value in data set [3] (after a pH change to 8.6) is recorded as around 60%.
In the case of “PEG-HSA: HSA surface-conjugated with mPEG-maleimide (5000 Da) via thiol-maleimide chemistry”, the hydrodynamic diameter in data set [1] is 13.1±0.6 nm.
On to “PEG-heme-HSA: heme incorporated into HSA followed by PEG (5000 Da) surface conjugation”, for which the hydrodynamic diameter in data set [1] is reported as 11.9±1.4 nm. In addition, the “colloidal / storage stability (summary statement)” value in data set [2] (different pH environments, freeze-thaw cycles, storage at 4° C.) is “stable; also recorded: more colloidally-stable than heme-HSA”. Further, the “change in quaternary structure” value in data set [2] (setting [5]) is listed as “no change in the quaternary structure”. Further, in data set [2], the “change in quaternary structure / SEC-HPLC elution profile” value is “did not show any change in the SEC-HPLC elution profile; also recorded: no change in quaternary structure”. Further, the “reduction of α-helical content compared to heme-HSA” value in data set [3] (after PEG-conjugation) is on record as around 9%.
Take “heme-HSA: heme non-covalently incorporated into human serum albumin, ~5 hemes bound per HSA molecule”: the hydrodynamic diameter in data set [1] is 5.1±2.2 nm and 5.1±1.2 nm. Further, in data set [2] (setting [5]), the “change in quaternary structure” value was “dimer formation”. Further, the “larger species (~8.4 mins)” value in data set [2] (0 hours) is above 20%; in data set [2] (after 72 hours of storage at 4° C.), around 90%. In data set [2] (storage at 4° C. for 24 hours), the “change in SEC-HPLC elution profile” value is given as “no change in the SEC-HPLC elution profile; also recorded: dimer formation”. In addition, the “change in quaternary structure / SEC-HPLC elution profile” value in data set [2] was “appearance of dimeric species”. For the same substance, the “heme precipitation out of solution” value in data set [2] (storage in aqueous solution at 4° C. for over 1 week) is reported as “no heme precipitated out of solution”. The “heme molecules bound to each HSA molecule” value is on record as around 5.8 in data set [4] (6:1 heme:HSA incubation reaction), 5.3 in data set [4] (10:1 heme-HSA incubation reaction) and 4.9 in data set [4] (12:1 heme-HSA incubation reaction). For the same substance, the “maximum heme molecules bound to each HSA molecule” value in data set [4] (heme:HSA molar ratios >6:1, without precipitation or degradation) is 5-6 and ~5.
